# Properties, as collected for the OPERA models

From the experimental data distributed with OPERA 2.9.

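The OPERA project collected these measurements from public sources as training and test data for property models. A listed value is a point estimate from one report or more. How each value was measured is not recorded, so precision varies. Where a salt, mixture or single isomer is drawn, the source does not say that exactly this form was tested. Some upstream entries may be estimates or bounds without being marked so.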

The melting point is given in degrees Celsius. The boiling point refers to atmospheric pressure (760 mmHg), by the definition of the set. The octanol-water partition coefficient is given as log10; larger values mean a more lipophilic compound. Water solubility is log10 of mol/L, nominally at 25 °C; higher is more soluble. Vapor pressure is log10 of mmHg; the set covers 15 to 30 °C, mostly 20 to 25 °C. The Henry's law constant is on a log10 scale in atm·m3/mol (set defined at 25 °C); higher favours air over water. The unbound fraction in human plasma runs from 0 (all bound) to 1 (all free). Clint is human hepatic intrinsic clearance in µL/min per million cells; 0 means that no clearance was seen. "n/a" marks a cell with nothing listed here.

The entry for C[C@H]1CC(=O)C=C2CC[C@@H]3[C@H](CC[C@]4(C)C(=O)CC[C@@H]34)[C@]21C [(1alpha)-1-Methylandrost-4-ene-3,17-dione] lists logP 2.65 and log S -3.958 (log10 mol/L). The entry for Oc1nc(Cl)c(Cl)cc1Cl [3,5,6-Trichloro-2-pyridinol] lists log vapor pressure -2.987 (log10 mmHg) and log Henry constant -4.964 (log10 atm·m3/mol). CCOC(=O)CC(SP(=O)(OC)OC)C(=O)OCC (stereo not given) [Malaoxon] is reported with melting point 20 °C and plasma fu 0.538 and intrinsic clearance 55.9 µL/min/10^6 cells. Listed for CCCCC(CC)COC(=O)c1c(Br)c(Br)c(Br)c(Br)c1C(=O)OCC(CC)CCCC (stereo not given) [Bis(2-ethylhexyl) tetrabromophthalate]: melting point -27 °C and logP 10.2. Listed for Brc1ccc(Oc2c(Br)cc(Br)cc2Br)c(Br)c1 [2,2',4,4',6-Pentabromodiphenyl ether]: melting point 98.75 °C and log S -7.084 (log10 mol/L) and log vapor pressure -6.613 (log10 mmHg).

Listed for CCc1cc(C)cc(CC)c1-c1c(OC(=O)C(C)(C)C)n2n(c1=O)CCOCC2 [Pinoxaden]: melting point 121 °C and logP 3.2 and log S -3.26 (log10 mol/L). Listed for CNC(=O)Oc1cc(C)c(C)c(C)c1 [3,4,5-Trimethylphenyl methylcarbamate]: log S -3.205 (log10 mol/L) and log Henry constant -7.364 (log10 atm·m3/mol). CC[C@@H](C(N)=O)N1CCCC1=O is reported with log vapor pressure -5.591 (log10 mmHg) and plasma fu 0.9167. For C=CC1(C)OC(=O)N(c2cc(Cl)cc(Cl)c2)C1=O (stereo not given) [Vinclozolin] the data give log Henry constant -7.875 (log10 atm·m3/mol) and intrinsic clearance 18.34 µL/min/10^6 cells. For CCCSC(=O)N(CCC)CCC [Vernolate] the data give log Henry constant -4.51 (log10 atm·m3/mol) and plasma fu 0.01906 and intrinsic clearance 25.1 µL/min/10^6 cells.

The entry for CC(C=O)Cc1ccc2c(c1)OCO2 (stereo not given) [3-(3,4-Methylenedioxyphenyl)-2-methylpropanal] lists melting point -20.07 °C and logP 2.4 and log S -2.313 (log10 mol/L) and log vapor pressure -3.16 (log10 mmHg). N#C[C@@H](O)c1cccc(Oc2ccccc2)c1 [(2S)-Hydroxy(3-phenoxyphenyl)acetonitrile] is reported with melting point -22.5 °C and bp 320.7 °C and logP 3 and log S -3.327 (log10 mol/L) and log vapor pressure -6.326 (log10 mmHg). CCCCOC(=O)c1ccccc1N [Butyl anthranilate] has melting point -2.5 °C and logP 3.69 and log S -3.383 (log10 mol/L). COS(=O)(=O)c1ccc(C)cc1 [Methyl toluene-4-sulfonate] has logP 1.88 and log S -2.333 (log10 mol/L). CCCOc1nn(C(=O)[N-]S(=O)(=O)c2ccccc2C(=O)OC)c(=O)n1C.[Na+] [Propoxycarbazone-sodium] has melting point 230 °C and log S -1 (log10 mol/L) and plasma fu 0.00891 and intrinsic clearance 0.91 µL/min/10^6 cells.

C1CCC2NCCC2C1 (stereo not given) [Octahydro-1H-indole] has melting point 143 °C and bp 186 °C. CCCCC(CC)C(=O)OOC(C)(C)C (stereo not given) [Hexaneperoxoic acid, 2-ethyl-, 1,1-dimethylethyl ester] is reported with logP 4.79 and log S -3.67 (log10 mol/L) and log vapor pressure -1.736 (log10 mmHg). The entry for CCOP(=S)(OCC)Oc1ccc([N+](=O)[O-])cc1 [Parathion] lists log S -4.36 (log10 mol/L) and intrinsic clearance 6.65 µL/min/10^6 cells. C[C@@]12CC[C@@H]3[C@H](CCC4=CC(=O)C=C[C@]43C)[C@H]1CCC2=O [Androsta-1,4-diene-3,17-dione] has logP 2.2 and log S -2.82 (log10 mol/L) and log vapor pressure -8.949 (log10 mmHg). For CC(=O)OC1N=C(c2ccccc2Cl)c2cc(Cl)ccc2N=C1O (stereo not given) the data give melting point 261 °C and log S -5.029 (log10 mol/L).

CC(=O)OCC1=C(C(=O)O)N2C(=O)[C@@H](N)[C@H]2SC1 [7-Aminocephalosporanic acid] has logP -3.4 and log S -2.649 (log10 mol/L) and log vapor pressure -6.718 (log10 mmHg). CNC(=O)Oc1cccc2c1OC(C)(C)C2 [Carbofuran] has plasma fu 0.4213 and intrinsic clearance 0 µL/min/10^6 cells. For Brc1ccc(Oc2ccccc2Br)c(Br)c1 [2,2',4-Tribromodiphenyl ether] the data give melting point 20 °C and log vapor pressure -4.81 (log10 mmHg). The entry for Brc1ccc(Br)c(-c2cc(Br)ccc2Br)c1 [2,2',5,5'-Tetrabromobiphenyl] lists melting point 143 °C and log S -8.06 (log10 mol/L). Listed for O=c1n(Cl)c(=O)n(Cl)c(=O)n1Cl [Symclosene]: logP 0.26 and log vapor pressure -4.824 (log10 mmHg).

C#CCOc1ccc(CCNC(=O)C(OCC#C)c2ccc(Cl)cc2)cc1OC (stereo not given) [Mandipropamid] has logP 3.2 and log S -4.991 (log10 mol/L) and log vapor pressure -8.152 (log10 mmHg). The entry for COc1nn(C(=O)[N-]S(=O)(=O)c2ccccc2OC(F)(F)F)c(=O)n1C.[Na+] [Flucarbazone-sodium] lists melting point 200 °C and log S -0.979 (log10 mol/L).

Excerpt, the final 2 entries:

| SMILES | name | melting point (°C) | bp (°C) | logP | log S (log10 mol/L) | log vapor pressure (log10 mmHg) | log Henry constant (log10 atm·m3/mol) | plasma fu | intrinsic clearance (µL/min/10^6 cells) |
|---|---|---|---|---|---|---|---|---|---|
| C#CCOc1ccc(CCNC(=O)C(OCC#C)c2ccc(Cl)cc2)cc1OC (stereo not given) | Mandipropamid | n/a | n/a | 3.2 | -4.991 | -8.152 | n/a | n/a | n/a |
| COc1nn(C(=O)[N-]S(=O)(=O)c2ccccc2OC(F)(F)F)c(=O)n1C.[Na+] | Flucarbazone-sodium | 200 | n/a | n/a | -0.979 | n/a | n/a | n/a | n/a |